Columns and labels:
Histone deacetylase 3 = Histone deacetylase 3 (Homo sapiens, UniProt O15379); test: Inhibition of HDAC3 (unknown origin) incubated at 37 degC for 30 mins
Histone deacetylase 2 = Histone deacetylase 2 (Homo sapiens, UniProt Q92769); test: Inhibition of HDAC2 (unknown origin) incubated at 37 degC for 30 mins

Chains of the proteins cited; added tags and fusions are not shown. Lines headed by an entry give the natural chain unless they say otherwise; changes in a name come on top.
UniProt O15379: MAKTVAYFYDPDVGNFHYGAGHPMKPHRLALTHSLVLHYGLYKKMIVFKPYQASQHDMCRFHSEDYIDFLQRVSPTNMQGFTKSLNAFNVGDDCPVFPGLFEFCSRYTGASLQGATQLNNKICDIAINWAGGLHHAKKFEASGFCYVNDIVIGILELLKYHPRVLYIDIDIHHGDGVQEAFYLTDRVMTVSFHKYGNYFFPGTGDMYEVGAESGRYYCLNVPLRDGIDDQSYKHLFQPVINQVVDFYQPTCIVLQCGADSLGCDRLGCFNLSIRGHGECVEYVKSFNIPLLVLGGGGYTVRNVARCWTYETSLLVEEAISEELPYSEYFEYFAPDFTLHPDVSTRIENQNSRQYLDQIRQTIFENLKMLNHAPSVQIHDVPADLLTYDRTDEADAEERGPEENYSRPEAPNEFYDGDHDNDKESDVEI
UniProt Q92769, whole entry: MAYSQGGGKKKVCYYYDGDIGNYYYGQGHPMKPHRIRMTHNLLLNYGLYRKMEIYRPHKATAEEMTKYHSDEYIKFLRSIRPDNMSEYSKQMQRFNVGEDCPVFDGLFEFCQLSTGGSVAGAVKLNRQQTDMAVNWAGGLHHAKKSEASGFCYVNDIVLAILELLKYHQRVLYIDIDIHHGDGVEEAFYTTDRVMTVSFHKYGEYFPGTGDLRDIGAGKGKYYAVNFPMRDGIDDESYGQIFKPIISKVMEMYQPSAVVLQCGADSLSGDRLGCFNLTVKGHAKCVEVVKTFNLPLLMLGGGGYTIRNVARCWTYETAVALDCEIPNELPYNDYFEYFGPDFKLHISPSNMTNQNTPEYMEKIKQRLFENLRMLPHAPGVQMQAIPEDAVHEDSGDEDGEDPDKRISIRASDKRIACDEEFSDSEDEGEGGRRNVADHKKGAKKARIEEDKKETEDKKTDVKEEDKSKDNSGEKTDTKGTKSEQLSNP

- IC50 (Histone deacetylase 3): 1.1 nM
- IC50 (Histone deacetylase 2): 1.1 nM
Structure (SMILES): CC(C)(C)OC(=O)n1cnc(C[C@@H]2NC(=O)[C@]3(C)CSC(=N3)c3csc(n3)CNC(=O)C[C@@H](/C=C/CCS)OC2=O)c1

Source: ChEMBL document CHEMBL3352389, “Evaluation of class I HDAC isoform selectivity of largazole analogues” (Bioorg Med Chem Lett, 2014)
